For series [1], the target named is human Cytochrome P 450 2C19 (Homo sapiens, UniProt P33261). As to the kind of experiment: Cytochrome P450 inhibition (Crespi et al.), isoenzyme 2C19. To be noted: read-out: Inhibition of the Cytochrome P450 Isoenzymes (IC50) 2C19; baculovirus/insect cell-expressed human isoenzyme 2C19. The protocol:
(§1) The Cytochrome P450 inhibition was performed according to the publication of Crespi et al. (Anal. Biochem., 248, 188-190 (1997)) with use of baculovirus/insect cell-expressed, human Cytochrome P 450 isoenzymes (1A2, 2C9, 2C19, 3A4).

Sequences of proteins named here, by UniProt entry; tags and fusion partners are left off. Residues count along the entry.
UniProt P33261, whole entry: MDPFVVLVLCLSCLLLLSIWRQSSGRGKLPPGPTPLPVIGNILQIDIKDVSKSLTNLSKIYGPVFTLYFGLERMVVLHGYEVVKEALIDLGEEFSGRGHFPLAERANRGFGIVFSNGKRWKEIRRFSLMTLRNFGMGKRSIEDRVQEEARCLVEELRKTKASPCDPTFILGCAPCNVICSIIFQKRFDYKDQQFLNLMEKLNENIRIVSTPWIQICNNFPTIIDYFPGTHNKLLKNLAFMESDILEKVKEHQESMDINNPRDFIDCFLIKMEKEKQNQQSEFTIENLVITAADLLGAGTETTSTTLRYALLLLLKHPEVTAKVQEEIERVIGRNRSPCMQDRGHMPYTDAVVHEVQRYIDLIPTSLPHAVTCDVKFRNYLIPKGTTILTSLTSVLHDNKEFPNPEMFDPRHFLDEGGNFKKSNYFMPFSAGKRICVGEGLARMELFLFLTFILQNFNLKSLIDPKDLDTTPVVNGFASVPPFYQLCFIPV
UniProt P11712, whole entry: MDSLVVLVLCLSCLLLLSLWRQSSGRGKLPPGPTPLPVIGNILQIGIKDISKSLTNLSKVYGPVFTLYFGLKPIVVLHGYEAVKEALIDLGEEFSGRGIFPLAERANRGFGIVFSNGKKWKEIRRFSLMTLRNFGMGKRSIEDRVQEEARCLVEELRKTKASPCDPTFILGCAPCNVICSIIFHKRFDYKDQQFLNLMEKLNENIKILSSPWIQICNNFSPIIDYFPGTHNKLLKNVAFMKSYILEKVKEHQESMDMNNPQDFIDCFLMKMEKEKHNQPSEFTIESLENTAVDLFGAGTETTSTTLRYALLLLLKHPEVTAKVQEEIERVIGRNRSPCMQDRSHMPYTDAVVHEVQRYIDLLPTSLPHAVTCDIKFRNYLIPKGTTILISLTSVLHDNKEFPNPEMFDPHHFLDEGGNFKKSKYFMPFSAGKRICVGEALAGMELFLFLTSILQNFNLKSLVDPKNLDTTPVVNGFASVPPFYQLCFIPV
UniProt P08684, whole entry: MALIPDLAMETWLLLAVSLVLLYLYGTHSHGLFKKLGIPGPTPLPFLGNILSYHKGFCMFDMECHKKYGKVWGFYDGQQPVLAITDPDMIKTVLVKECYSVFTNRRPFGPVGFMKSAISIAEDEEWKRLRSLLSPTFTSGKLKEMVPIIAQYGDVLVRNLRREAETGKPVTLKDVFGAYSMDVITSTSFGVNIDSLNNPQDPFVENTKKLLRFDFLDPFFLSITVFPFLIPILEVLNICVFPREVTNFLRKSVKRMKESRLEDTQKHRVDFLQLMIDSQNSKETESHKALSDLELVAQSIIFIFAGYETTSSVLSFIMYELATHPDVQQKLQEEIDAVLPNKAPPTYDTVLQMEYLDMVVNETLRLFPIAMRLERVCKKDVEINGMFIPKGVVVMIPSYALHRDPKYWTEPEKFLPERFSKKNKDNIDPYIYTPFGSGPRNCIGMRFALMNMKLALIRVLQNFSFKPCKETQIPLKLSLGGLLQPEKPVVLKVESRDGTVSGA
UniProt P35968, 20-1356 limits assumed: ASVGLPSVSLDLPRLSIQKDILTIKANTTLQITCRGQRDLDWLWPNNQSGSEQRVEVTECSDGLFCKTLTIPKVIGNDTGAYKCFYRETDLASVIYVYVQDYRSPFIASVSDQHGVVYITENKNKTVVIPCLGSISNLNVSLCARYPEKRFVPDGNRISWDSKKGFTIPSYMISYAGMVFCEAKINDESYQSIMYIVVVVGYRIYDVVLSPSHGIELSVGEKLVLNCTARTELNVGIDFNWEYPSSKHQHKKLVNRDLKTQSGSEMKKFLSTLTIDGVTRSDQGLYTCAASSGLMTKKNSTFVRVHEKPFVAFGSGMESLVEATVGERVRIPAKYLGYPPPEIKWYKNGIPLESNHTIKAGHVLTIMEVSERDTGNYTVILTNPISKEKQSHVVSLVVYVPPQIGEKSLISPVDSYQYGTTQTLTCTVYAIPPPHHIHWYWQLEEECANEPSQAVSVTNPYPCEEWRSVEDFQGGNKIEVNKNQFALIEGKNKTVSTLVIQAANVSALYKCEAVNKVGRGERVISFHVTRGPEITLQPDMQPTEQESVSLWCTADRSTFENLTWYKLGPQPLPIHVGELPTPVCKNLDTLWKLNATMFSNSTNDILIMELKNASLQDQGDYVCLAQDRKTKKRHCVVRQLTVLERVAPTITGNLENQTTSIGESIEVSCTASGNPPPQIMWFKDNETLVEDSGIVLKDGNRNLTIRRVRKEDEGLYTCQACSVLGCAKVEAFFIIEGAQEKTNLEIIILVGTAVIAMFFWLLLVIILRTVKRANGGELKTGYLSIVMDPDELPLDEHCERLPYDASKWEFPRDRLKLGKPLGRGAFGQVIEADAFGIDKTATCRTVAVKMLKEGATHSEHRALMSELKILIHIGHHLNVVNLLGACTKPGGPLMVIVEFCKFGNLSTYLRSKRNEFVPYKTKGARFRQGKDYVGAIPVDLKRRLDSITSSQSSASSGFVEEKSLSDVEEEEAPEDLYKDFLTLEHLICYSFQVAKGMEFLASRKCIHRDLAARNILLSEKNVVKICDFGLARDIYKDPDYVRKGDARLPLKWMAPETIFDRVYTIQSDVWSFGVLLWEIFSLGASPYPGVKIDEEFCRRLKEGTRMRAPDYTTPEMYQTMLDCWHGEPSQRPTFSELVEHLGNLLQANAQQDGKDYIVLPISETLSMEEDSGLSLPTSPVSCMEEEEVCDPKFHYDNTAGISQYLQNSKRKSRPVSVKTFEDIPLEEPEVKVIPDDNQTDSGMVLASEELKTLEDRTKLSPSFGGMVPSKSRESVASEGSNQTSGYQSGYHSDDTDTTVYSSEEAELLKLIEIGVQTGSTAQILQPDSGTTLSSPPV
UniProt P05177, whole entry: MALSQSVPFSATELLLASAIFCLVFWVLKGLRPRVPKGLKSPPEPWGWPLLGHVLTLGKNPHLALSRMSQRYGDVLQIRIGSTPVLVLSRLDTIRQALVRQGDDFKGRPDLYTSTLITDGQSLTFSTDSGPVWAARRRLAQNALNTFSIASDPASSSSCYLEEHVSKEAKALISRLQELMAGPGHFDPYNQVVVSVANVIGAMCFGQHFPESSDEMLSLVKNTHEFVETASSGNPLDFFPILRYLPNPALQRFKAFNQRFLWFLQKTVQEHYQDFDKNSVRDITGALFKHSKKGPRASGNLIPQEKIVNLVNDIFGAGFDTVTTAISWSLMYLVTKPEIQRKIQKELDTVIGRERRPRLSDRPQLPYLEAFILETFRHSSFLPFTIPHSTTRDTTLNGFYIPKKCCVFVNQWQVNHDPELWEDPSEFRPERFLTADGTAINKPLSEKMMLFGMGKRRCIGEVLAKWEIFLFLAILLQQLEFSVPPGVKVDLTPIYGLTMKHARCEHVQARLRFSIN

The target in series [2] is human Cytochrome P 450 2C9 (Homo sapiens, UniProt P11712). As to the kind of experiment: Cytochrome P450 inhibition (Crespi et al.), isoenzyme 2C9. The following applies: read-out: Inhibition of the Cytochrome P450 Isoenzymes (IC50) 2C9; baculovirus/insect cell-expressed human isoenzyme 2C9. The protocol:
as §1

For series [3], the target named is human Cytochrome P 450 3A4 (Homo sapiens, UniProt P08684). Kind of series: Cytochrome P450 inhibition (Crespi et al.), isoenzyme 3A4. The following applies: read-out: Inhibition of the Cytochrome P450 Isoenzymes (IC50) 3A4; baculovirus/insect cell-expressed human isoenzyme 3A4. How it is done:
as §1

Series [4] deals with VEGFR II (KDR) (Homo sapiens, UniProt P35968). Kind of series: Inhibition of the KDR kinase activity (33P-ATP, poly-(Glu4Tyr) substrate). The following applies: read-out: kinase inhibition IC50 VEGFR II (KDR); phosphate incorporation, 10 minutes at room temperature. How it is done:
Stock solution A: 3 mmol of ATP in water, pH 7.0 (−70° C.)
Stock solution B: g-33 P-ATP 1 mCi/100 μl
Stock solution C: poly-(Glu4 Tyr) 10 mg/ml in water
Substrate solvent: 10 mmol of DTT, 10 mmol of manganese chloride, 100 mmol of magnesium chloride
Enzyme solution: 120 mmol of tris/HCl, pH 7.5, 10 μM of sodium vanadium oxide
In a microtiter plate (without protein binding) that tapers to a point, 10 μl of substrate mix (10 μl of volume of ATP stock solution A+25 μCi of g-33P-ATP (about 2.5 μl of stock solution B)+30 μl of poly-(Glu4Tyr) stock solution C+1.21 ml of substrate solvent), 10 μl of inhibitor solution (substances corresponding to the dilutions, 3% DMSO in substrate solvent as a control) and 10 μl of enzyme solution (11.25 μg of enzyme stock solution (KDR or FLT-1 kinase) are added at 4° C. in 1.25 ml of enzyme solution (dilute). It is thoroughly mixed and incubated for 10 minutes at room temperature. Then, 10 μl of stop solution (250 mmol of EDTA, pH 7.0) is added, mixed, and 10 μl of the solution is transferred to a P 81 phosphocellulose filter. Then, it is washed several times in 0.1 M phosphoric acid. The filter paper is dried, coated with Meltilex and measured in a microbeta counter. […]

In series [5] the target is human Cytochrome P 450 1A2 (Homo sapiens, UniProt P05177). As to the kind of experiment: Cytochrome P450 inhibition (Crespi et al.), isoenzyme 1A2. To be noted: read-out: Inhibition of the Cytochrome P450 Isoenzymes (IC50) 1A2; baculovirus/insect cell-expressed human isoenzyme 1A2. How it is done: as §1

The structures appear in SMILES notation.

Experimental findings from patent publication US20040254185A1 are described below.

As usually defined, the IC50 is the concentration at which inhibition is half-maximal. Regarding `O=C(NCCCO)c1cc(CNc2ccccc2C(=O)Nc2cc3ccccc3cn2)ccn1`, the half-inhibitory concentration (IC50) in series [1] is 4.9 µM; in series [2], 2.9 µM; in series [3], 25 µM; in series [4], 0.04 µM; in series [5], 30 µM.
